Test results taken from ChEMBL document CHEMBL5244201, “Non-covalent albumin-binding ligands for extending the circulating half-life of small biotherapeutics” (Medchemcomm, 2019).

Chains of the proteins cited; added tags and fusions are not shown.
UniProt P02768, whole entry: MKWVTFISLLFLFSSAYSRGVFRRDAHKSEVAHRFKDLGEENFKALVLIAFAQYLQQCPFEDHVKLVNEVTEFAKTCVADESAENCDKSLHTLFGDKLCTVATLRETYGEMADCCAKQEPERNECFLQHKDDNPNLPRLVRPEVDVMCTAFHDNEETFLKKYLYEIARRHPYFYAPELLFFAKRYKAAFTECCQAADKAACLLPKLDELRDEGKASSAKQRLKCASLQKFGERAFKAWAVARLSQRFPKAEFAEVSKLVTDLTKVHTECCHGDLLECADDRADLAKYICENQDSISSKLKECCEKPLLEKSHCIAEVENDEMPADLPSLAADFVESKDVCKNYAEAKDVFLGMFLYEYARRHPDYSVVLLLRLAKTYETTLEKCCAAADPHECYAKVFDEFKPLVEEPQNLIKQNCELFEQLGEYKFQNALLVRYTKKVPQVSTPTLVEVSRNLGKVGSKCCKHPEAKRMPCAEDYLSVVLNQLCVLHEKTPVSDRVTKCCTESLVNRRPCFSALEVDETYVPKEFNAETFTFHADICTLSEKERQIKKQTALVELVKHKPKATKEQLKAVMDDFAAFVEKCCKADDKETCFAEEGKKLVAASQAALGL
UniProt P02770, whole entry: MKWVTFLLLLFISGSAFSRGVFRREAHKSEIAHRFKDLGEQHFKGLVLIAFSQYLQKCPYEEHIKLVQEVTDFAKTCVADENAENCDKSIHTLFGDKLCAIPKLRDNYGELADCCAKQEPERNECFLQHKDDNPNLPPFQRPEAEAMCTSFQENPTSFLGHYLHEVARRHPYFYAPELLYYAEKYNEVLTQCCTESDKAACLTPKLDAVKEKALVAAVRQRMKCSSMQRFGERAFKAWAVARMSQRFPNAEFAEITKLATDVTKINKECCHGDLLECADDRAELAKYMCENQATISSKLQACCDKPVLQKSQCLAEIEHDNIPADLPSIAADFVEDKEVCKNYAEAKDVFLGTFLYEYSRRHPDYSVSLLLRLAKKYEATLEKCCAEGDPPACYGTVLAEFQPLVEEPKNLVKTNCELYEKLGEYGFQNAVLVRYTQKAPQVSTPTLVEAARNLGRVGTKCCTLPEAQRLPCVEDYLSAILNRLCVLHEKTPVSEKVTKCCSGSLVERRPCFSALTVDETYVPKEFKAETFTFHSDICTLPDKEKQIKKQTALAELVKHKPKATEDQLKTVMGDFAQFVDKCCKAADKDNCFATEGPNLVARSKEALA
UniProt P49065, whole entry: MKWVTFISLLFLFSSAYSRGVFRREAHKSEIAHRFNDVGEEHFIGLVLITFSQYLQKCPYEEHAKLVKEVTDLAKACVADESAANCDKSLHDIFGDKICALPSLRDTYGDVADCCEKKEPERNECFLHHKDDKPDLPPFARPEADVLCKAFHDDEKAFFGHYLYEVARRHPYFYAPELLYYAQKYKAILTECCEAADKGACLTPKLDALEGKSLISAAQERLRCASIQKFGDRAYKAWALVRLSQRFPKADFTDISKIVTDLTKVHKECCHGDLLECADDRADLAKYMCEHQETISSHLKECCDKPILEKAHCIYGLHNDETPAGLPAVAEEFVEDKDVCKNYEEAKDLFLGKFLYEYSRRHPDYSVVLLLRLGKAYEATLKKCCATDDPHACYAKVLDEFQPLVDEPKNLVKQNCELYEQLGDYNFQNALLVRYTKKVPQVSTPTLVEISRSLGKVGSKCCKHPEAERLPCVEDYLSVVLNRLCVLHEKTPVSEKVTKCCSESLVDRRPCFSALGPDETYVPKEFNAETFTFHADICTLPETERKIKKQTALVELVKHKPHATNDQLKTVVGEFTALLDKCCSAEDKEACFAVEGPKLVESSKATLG

Columns and labels:
Albumin [1] = biological target: Albumin (Homo sapiens, UniProt P02768); assay: Binding affinity to human albumin by fluorescence polarization assay
Albumin [2] = biological target: Albumin (Rattus norvegicus, UniProt P02770); assay: Binding affinity to rat albumin by fluorescence polarization assay
Albumin [3] = biological target: Albumin (Oryctolagus cuniculus, UniProt P49065); assay: Binding affinity to rabbit albumin by fluorescence polarization assay

## CCCCCCCCCCCCCCCC(=O)NCCCC[C@H](NC(=O)[C@H](CCC(=O)O)NC(=O)[C@H](Cc1ccc(O)cc1)NC(=O)[C@H](CCC(=O)O)NC(=O)COCCOCCNC(=O)c1ccc2c(c1)C(=O)OC21c2ccc(O)cc2Oc2cc(O)ccc21)C(=O)N[C@@H](CCC(=O)O)C(=O)N[C@@H](Cc1ccc(O)cc1)C(=O)N[C@@H](CCC(=O)O)C(N)=O
Albumin [1]
  Kd: 0.039 µM
Albumin [2]
  Kd: 0.22 µM
Albumin [3]
  Kd: 0.32 µM
